The chains behind the UniProt entries cited, without tags or fusion partners.
UniProt P21452, whole entry: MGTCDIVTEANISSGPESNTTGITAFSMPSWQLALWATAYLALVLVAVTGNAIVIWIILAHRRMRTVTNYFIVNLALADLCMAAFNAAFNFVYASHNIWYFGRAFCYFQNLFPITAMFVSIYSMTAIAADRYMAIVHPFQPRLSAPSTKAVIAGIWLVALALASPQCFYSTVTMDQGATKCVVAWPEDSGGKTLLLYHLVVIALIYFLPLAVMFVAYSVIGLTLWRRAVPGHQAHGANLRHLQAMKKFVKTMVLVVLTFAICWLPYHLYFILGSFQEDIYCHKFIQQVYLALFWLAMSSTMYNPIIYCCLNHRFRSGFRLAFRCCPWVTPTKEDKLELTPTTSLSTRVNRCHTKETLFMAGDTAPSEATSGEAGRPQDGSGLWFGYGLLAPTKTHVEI

In patent publication US10799605B2 (3B PHARMACEUTICALS GMBH, priority 2014, dated 2020):

Biological target: NK2 (h) (Homo sapiens (Human), UniProt P21452)
Assay: ExpresSProfile: neurokinin receptor 2, agonist radioligand
Assay type: binding
Conditions: Reference Compound; read-out: Ki Ref

Structure (SMILES): CCCC[C@H](NC(=O)[C@H](CC(C)C)NC(=O)CNC(=O)[C@@H](NC(=O)[C@H](Cc1ccccc1)NC(=O)[C@H](CO)NC(=O)[C@@H](N)CC(=O)O)C(C)C)C(N)=O
- Ki: 2.5 nM
